Measurements as given in the Human Domainome abundance scans (Beltran et al. 2025).
± gives the uncertainty stated by the source.

B1: X-ray repair cross-complementing protein 6, residues 558 to 609; numbered along this chain, P12956 (parent)
chain: EYSEEELKTHISKGTLGKFTVPMLKEACRAYGLKSGLKKQELLEALTKHFQD

Variants of: B1
Test: abundance fitness (aPCA) (normalised: wild type 0, dead -1); higher = more abundant; growth selection in yeast, the domain comes from the species named
Conditions: Homo sapiens

Abundance fitness: each site, then its substitutions
L33: E -0.613 ± 0.067, P -0.924 ± 0.13, M -0.649 ± 0.12, F -0.691 ± 0.087, K -1.26 ± 0.31, I -0.104 ± 0.086, R -0.9 ± 0.046, S -0.98 ± 0.055, A -0.752 ± 0.071, D -0.637 ± 0.062, Q -0.722 ± 0.089, G -0.912 ± 0.05, C -0.406 ± 0.054
G14: N -0.128 ± 0.12, R -0.34 ± 0.046, W -0.666 ± 0.091, T -1 ± 0.16, Q -0.197 ± 0.1, K -0.09 ± 0.095, F -0.933 ± 0.12, E -0.395 ± 0.08, D -0.309 ± 0.069, M -1.02 ± 0.22, S -0.326 ± 0.07, A -0.469 ± 0.041, L -0.442 ± 0.071, I -0.998 ± 0.28, H -0.788 ± 0.25, P -0.617 ± 0.18, C -0.633 ± 0.096, V -0.96 ± 0.083
C28: N -0.644 ± 0.18, E -1.15 ± 0.26, V -0.153 ± 0.059, W -0.844 ± 0.066, F -0.278 ± 0.1, Y -0.939 ± 0.084, A -0.267 ± 0.082, D -0.786 ± 0.36, P -0.858 ± 0.099, T -0.37 ± 0.099, S -0.5 ± 0.077, M -0.375 ± 0.082, L -0.322 ± 0.074, H -0.498 ± 0.27, G -0.443 ± 0.075
A30: R 0.086 ± 0.07, W -0.324 ± 0.049, M -0.011 ± 0.071, C 0.203 ± 0.12, L 0.022 ± 0.069, Y 0.185 ± 0.21, S -0.101 ± 0.071, G -0.309 ± 0.1, K 0.107 ± 0.056, H -0.635 ± 0.18, N -0.471 ± 0.17, P -0.562 ± 0.14, F -0.292 ± 0.17, T -0.586 ± 0.14, D -0.357 ± 0.067, E -0.311 ± 0.12, Q 0.037 ± 0.084, I 0.299 ± 0.099
T15: Q -0.216 ± 0.045, W -0.539 ± 0.098, S -0.367 ± 0.08, V -0.669 ± 0.076, I -0.504 ± 0.043, H -0.7 ± 0.14, M -0.516 ± 0.16, R -0.457 ± 0.065, G -0.515 ± 0.042, L -0.396 ± 0.059, D -0.365 ± 0.12, C -0.648 ± 0.17, F -0.934 ± 0.25, P -0.449 ± 0.29, E -0.358 ± 0.13, A -0.536 ± 0.052, Y -0.629 ± 0.29
P22: W -0.37 ± 0.12, V -0.418 ± 0.079, N 0.003 ± 0.13, S -0.122 ± 0.069, G -0.12 ± 0.095, Q 0.129 ± 0.13, R -0.053 ± 0.06, I -0.161 ± 0.15, L -0.357 ± 0.095, H 0.006 ± 0.11, A 0.016 ± 0.094, K 0.067 ± 0.17, M -0.369 ± 0.12, C -0.57 ± 0.17, E 0.141 ± 0.1, D 0.14 ± 0.12, T -0.101 ± 0.056, Y -0.245 ± 0.1
G32: W -0.788 ± 0.072, A -0.445 ± 0.068, V -0.9 ± 0.082, S -0.295 ± 0.049, E -0.433 ± 0.084, T -0.418 ± 0.095, M -0.724 ± 0.12, N -0.026 ± 0.11, D -0.3 ± 0.045, K -0.108 ± 0.097, Q -0.496 ± 0.13, F -0.599 ± 0.12, H -0.036 ± 0.11, I -0.796 ± 0.2, Y -0.517 ± 0.19, R -0.276 ± 0.057
K18: W -0.225 ± 0.06, N 0.166 ± 0.1, E 0.113 ± 0.094, V -0.327 ± 0.076, F 0.021 ± 0.083, S 0.078 ± 0.042, Q -0.052 ± 0.08, I -0.297 ± 0.094, R -0.079 ± 0.053, M -0.005 ± 0.041, D -0.009 ± 0.061, H -0.105 ± 0.11, C -0.016 ± 0.06, T 0.187 ± 0.072, Y -0.445 ± 0.11
V21: R -0.262 ± 0.07, D -0.744 ± 0.23, L -0.119 ± 0.07, M -0.2 ± 0.064, Y 0.069 ± 0.089, G -0.36 ± 0.063, E -0.111 ± 0.094, F -0.315 ± 0.1, S -0.597 ± 0.1, A -0.365 ± 0.059, C -0.38 ± 0.098, I -0.204 ± 0.098, H -0.864 ± 0.39, K -0.457 ± 0.26, N -0.541 ± 0.28, Q -0.035 ± 0.12, P -0.675 ± 0.28
L16: Y -0.827 ± 0.4, T -0.353 ± 0.069, M -0.317 ± 0.058, V -0.331 ± 0.054, R -0.743 ± 0.098, P -0.97 ± 0.47, N -0.702 ± 0.21, Q -0.669 ± 0.086, D -0.735 ± 0.12, E -0.292 ± 0.083, S -0.652 ± 0.068, H -0.57 ± 0.087, C -0.914 ± 0.2, A -0.383 ± 0.07, G -0.503 ± 0.053, W -0.878 ± 0.13
K13: N 0.205 ± 0.099, R -0.065 ± 0.075, T -0.275 ± 0.093, P -0.519 ± 0.097, M -0.118 ± 0.12, S -0.243 ± 0.049, W -0.987 ± 0.16, Y -0.401 ± 0.086, Q 0.009 ± 0.11
E26: L -0.177 ± 0.043, N -0.474 ± 0.14, G -0.166 ± 0.061, C -0.266 ± 0.06, T -0.576 ± 0.14, K -0.218 ± 0.14, S -0.082 ± 0.046, I -0.103 ± 0.1, D -0.334 ± 0.13, R 0.002 ± 0.055, H -0.02 ± 0.12, M -0.29 ± 0.1, Q 0.114 ± 0.11, V -0.21 ± 0.057, P -1.01 ± 0.39, A -0.075 ± 0.095, F -0.438 ± 0.044, Y -0.412 ± 0.098
Y31: H 0.123 ± 0.13, P -1.07 ± 0.24, M -0.038 ± 0.089, G -0.685 ± 0.067, N -0.141 ± 0.094, T -0.343 ± 0.098, R -0.197 ± 0.049, K -0.481 ± 0.14, E -0.459 ± 0.15, D -0.657 ± 0.17, I -0.264 ± 0.19, V -0.136 ± 0.062, W -0.044 ± 0.075, Q -0.216 ± 0.14, L -0.151 ± 0.082, S -0.602 ± 0.093, A -0.189 ± 0.054
K25: S -0.121 ± 0.069, H -0.249 ± 0.18, R -0.034 ± 0.055, F -0.266 ± 0.046, I 0.155 ± 0.11, T -0.02 ± 0.053, D -0.029 ± 0.1, P -1.11 ± 0.21, E -0.035 ± 0.092, G -0.339 ± 0.065, C -0.009 ± 0.1, Q 0.011 ± 0.12, M -0.195 ± 0.17, Y -0.544 ± 0.15, L -0.239 ± 0.076, W -0.231 ± 0.054, A -0.102 ± 0.089, N 0.212 ± 0.12
G17: K -0.253 ± 0.12, N 0.045 ± 0.088, Q 0.006 ± 0.069, M -0.12 ± 0.068, F -0.285 ± 0.25, E 0.052 ± 0.073, H -0.239 ± 0.27, V 0.02 ± 0.063, C 0 ± 0.059, A -0.046 ± 0.043, Y -0.09 ± 0.078, S 0.002 ± 0.07, W 0.036 ± 0.074, D 0.052 ± 0.066, I -0.232 ± 0.12, L -0.183 ± 0.05, R -0.105 ± 0.051, T -0.112 ± 0.092
T20: W -1.1 ± 0.12, S -0.107 ± 0.062, R -0.512 ± 0.048, Q -0.388 ± 0.078, V -1.22 ± 0.12, N -0.253 ± 0.048, Y -0.93 ± 0.064, K -0.544 ± 0.11, L -1.13 ± 0.054, I -0.961 ± 0.16, M -1.11 ± 0.25, P -0.115 ± 0.047, F -1.04 ± 0.12, C -0.494 ± 0.079, A -0.441 ± 0.051, E -0.12 ± 0.075, H -0.837 ± 0.14, G -0.173 ± 0.044, D -0.078 ± 0.069
F19: R -0.778 ± 0.068, I -0.494 ± 0.18, S -0.858 ± 0.15, H -0.485 ± 0.47, W -0.025 ± 0.064, G -0.611 ± 0.058, V -0.283 ± 0.064, C 0.03 ± 0.062, E -0.345 ± 0.082, K -0.667 ± 0.2, L -0.004 ± 0.076, Y 0.068 ± 0.11, P -0.157 ± 0.12, Q -0.689 ± 0.19, D -0.635 ± 0.18
A27: M 0.006 ± 0.038, C -0.621 ± 0.24, L 0.021 ± 0.055, I 0.072 ± 0.24, Q -0.62 ± 0.19, V -0.195 ± 0.11, S -0.545 ± 0.17, G -0.937 ± 0.16, W -0.179 ± 0.095, K -0.37 ± 0.15, T -0.351 ± 0.21
M23: W -0.124 ± 0.093, N -0.781 ± 0.2, I -0.488 ± 0.11, S -0.22 ± 0.047, L -0.373 ± 0.062, Q -0.082 ± 0.11, D -0.277 ± 0.43, R -0.182 ± 0.076, F -0.36 ± 0.11, P -0.643 ± 0.13, H -0.582 ± 0.19, A -0.08 ± 0.045, Y -0.18 ± 0.12, G -0.413 ± 0.059, K -0.048 ± 0.067
L24: A -0.784 ± 0.048, S -0.907 ± 0.068, V -0.95 ± 0.12, M -0.545 ± 0.11, F -0.884 ± 0.14, D -0.676 ± 0.08, T -1.15 ± 0.25, G -1.07 ± 0.12, R -0.892 ± 0.19, K -1 ± 0.32, C -0.928 ± 0.19, N -0.848 ± 0.33, W -1.02 ± 0.11, Q -0.786 ± 0.049, E -0.858 ± 0.088
R29: M -0.043 ± 0.078, H 0.023 ± 0.18, A 0.028 ± 0.09, E -0.025 ± 0.07, I -0.094 ± 0.23, N 0.267 ± 0.18, S -0.113 ± 0.062, F -0.209 ± 0.1, K 0.043 ± 0.066, D 0.011 ± 0.06, Q 0.061 ± 0.095, G -0.246 ± 0.064, W -0.314 ± 0.042, L -0.215 ± 0.066, P -0.538 ± 0.35, T -0.365 ± 0.14
